Measured values: US20130059793A1, “EGF RECEPTOR MIMICKING PEPTIDES” (BOARD OF REGENTS, THE UNIVERSITY OF TEXAS SYSTEM, priority 2010, published 2013)

Experiments:
HN5 tumor cells = assay: Cell viability/proliferation, MTT assay, HN5; format: cell-based, human; design: dose or concentration left out as unconfirmed; conditions: 120 h, increasing concentrations, FIG. 4C
Procedure: (§1) A representative experiment is depicted. […] Bars represent mean±SEM. […] (FIG. 4C) Effect of the synthetic peptides on HN5 tumor cells. […] Viability in the absence of peptide was set to 100%. […] Bars represent mean±SEM. […] Receptors were immunoprecipitated with antibodies against phosphorylated (p) pEGFR and were immunoblotted with anti-phosphotyrosine IgG.
(§2) Tumor cell lines HN5, UMSCC 10A, GEO and EF43.fgf-4 were culture in standard conditions. Viability was assessed by MTT assays (Sigma) as described (Cardó-Vila et al., 2003). […] Samples were read at 570 nm.
(§3) Tumor cell lines HN5, UMSCC 10A, GEO and EF43.fgf-4 were maintained in high-glucose DMEM, supplemented with 10% heat-inactivated fetal bovine serum, 20 mM HEPES (pH 7.4), 100 IU/ml penicillin, 100 μg/ml streptomycin, and 4 mM glutamine at 5% CO2 at 37° C. EF43.fgf-4 were grown in G418 as described (Hajitou et al., 2006).

GEO cells = assay: Cell viability/proliferation, MTT assay, GEO; format: cell-based, human; conditions: FIG. 9B
Procedure: A representative experiment is shown. Bars represent mean±SEM.
as §2, §3

[1] = biological target: binding of EGF to the EGFR (Homo sapiens, UniProt P01133); assay: Displacement of EGF from immobilized EGFR (FIG. 6A); conditions: D(CARVC) from 30 to 1,000 mM, cetuximab 12 nM positive control
Description: The EGFR was coated onto 96-well plates at decreasing concentrations. […] D(CAAVC (SEQ ID NO:8)) was used as a negative peptidomimetic control at the same concentrations (circles). […] Bars represent mean±SEM.
Decreasing molar concentrations of EGFR were immobilized in vitro, after which the native ligand (EGF or TGFα) was used to establish the baseline for the binding of EGF to the EGFR, or of TGFα to the EGFR.

EGFR = assay: EGF-induced EGFR autophosphorylation (immunoprecipitation, anti-phosphotyrosine blot); format: cell-based, human; conditions: HN5 tumor cells, EGF 15 min, FIG. 4E
Procedure: as §1
Cells were lysed and lysates were used for immunoprecipitation assays as described (Cardó-Vila et al., 2003). Cells were lysed in 20 mM Tris-HCl (pH 7.8), 150 mM NaCl, 1 mM EDTA, 1 mM EGTA, 10 mM DTT, 10 mM PMSF 1% Titron X-100, phosphatase inhibitor I and II (Sigma) and protease inhibitor, sonicated, and clarified by centrifugation. For immunoprecipitation (IP) studies, lysates were incubated with primary antibodies, and the immune complexes were precipitated with protein A-Sepharose beads. Cell lysates or immunoprecipitated proteins were separated by SDS-PAGE, electro-transferred onto nitrocellulose, and probed with primary antibodies and horseradish peroxidase-labeled secondary antibodies.
An anti-phosphotyrosine antibody (PY20) was used for EGFR activation assays. Tumor cells were starved and/or incubated with ligands. […]

cetuximab [reference compound] was tested, and the “cell proliferation / viability” value (HN5 tumor cells) was “inhibited cell proliferation”, the “cell proliferation / viability” value (GEO cells) was “inhibited cell proliferation” and the “displacement of EGF from the EGFR” value [1] was “displaced EGF at low nanomolar concentrations”. The “EGF-induced tyrosine phosphorylation of the EGFR” value (EGFR) was “effectively inhibited”.
